This is an account of results in PMC11786100, “Chronic GIPR agonism results in pancreatic islet GIPR functional desensitisation” (Molecular Metabolism, 2025).

Chains of the proteins cited; added tags and fusions are not shown. Residues count along the entry.
UniProt P43220, 24-463: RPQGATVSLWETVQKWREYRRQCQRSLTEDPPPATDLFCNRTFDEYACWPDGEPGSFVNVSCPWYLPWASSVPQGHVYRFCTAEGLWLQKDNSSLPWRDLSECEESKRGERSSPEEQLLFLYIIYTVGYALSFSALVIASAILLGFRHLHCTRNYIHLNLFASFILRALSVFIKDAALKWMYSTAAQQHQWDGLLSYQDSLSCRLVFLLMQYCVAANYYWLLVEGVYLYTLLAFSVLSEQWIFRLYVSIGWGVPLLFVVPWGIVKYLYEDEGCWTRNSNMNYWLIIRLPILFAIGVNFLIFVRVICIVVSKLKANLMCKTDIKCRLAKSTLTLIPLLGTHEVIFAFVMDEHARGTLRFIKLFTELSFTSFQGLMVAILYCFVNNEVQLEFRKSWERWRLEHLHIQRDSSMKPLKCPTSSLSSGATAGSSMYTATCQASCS

Assay [1] deals with T1, SNAP-tagged human GLP-1R (Homo sapiens, UniProt P43220).
T1 construct: host or cells: AD-293
Briefly: β-arrestin-2 activation assay (Borealis sensor) in AD-293 cells. It counts as cell-based. The following applies: 10 nM, 30-minute stimulation, n = 5–6.

For assay [2], the target named is T1, SNAP-tagged human GLP-1R. Briefly: Internalisation and receptor surface expression assays in AD-293 cells. It counts as cell-based. The following applies: 10 nM.

In the case of GLP-1(7–36)·NH2, at SNAP-tagged human GLP-1R [1], the “β-arrestin-2 activation compared to vehicle control” value is “significant β-arrestin-2 activation”. The “receptor internalisation compared to vehicle” value on SNAP-tagged human GLP-1R [2] (1-hour treatment, n = 3–4) is “significantly increased both mouse and human GLP-1R internalisation”. Besides, the “receptor internalisation (surface expression) compared to vehicle” value at SNAP-tagged human GLP-1R [2] (4-hours treatment, n = 7–8) was “significantly increased both mouse and human GLP-1R internalisation”.
